This passage reports Ki results from patent US9085531B2 (priority 2004, dated 2015).

The chains behind the UniProt entries cited, without tags or fusion partners.
UniProt P23975, whole entry, looked up: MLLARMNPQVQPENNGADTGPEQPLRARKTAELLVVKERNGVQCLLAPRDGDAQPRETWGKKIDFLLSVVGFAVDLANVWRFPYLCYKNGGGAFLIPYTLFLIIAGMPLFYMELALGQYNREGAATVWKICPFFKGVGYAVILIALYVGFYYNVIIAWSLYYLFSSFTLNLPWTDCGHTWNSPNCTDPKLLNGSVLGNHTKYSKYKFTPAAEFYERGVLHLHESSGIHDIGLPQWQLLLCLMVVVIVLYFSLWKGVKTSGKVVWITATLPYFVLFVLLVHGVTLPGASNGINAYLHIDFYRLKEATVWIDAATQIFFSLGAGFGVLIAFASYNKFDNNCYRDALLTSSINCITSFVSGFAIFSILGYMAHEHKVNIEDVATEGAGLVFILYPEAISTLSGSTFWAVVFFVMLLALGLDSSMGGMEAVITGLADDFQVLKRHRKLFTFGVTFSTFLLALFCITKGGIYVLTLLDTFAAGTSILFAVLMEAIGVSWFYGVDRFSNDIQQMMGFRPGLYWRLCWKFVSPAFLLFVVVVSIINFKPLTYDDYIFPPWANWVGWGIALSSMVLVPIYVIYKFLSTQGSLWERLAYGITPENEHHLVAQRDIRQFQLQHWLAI
UniProt Q01959, whole entry, looked up: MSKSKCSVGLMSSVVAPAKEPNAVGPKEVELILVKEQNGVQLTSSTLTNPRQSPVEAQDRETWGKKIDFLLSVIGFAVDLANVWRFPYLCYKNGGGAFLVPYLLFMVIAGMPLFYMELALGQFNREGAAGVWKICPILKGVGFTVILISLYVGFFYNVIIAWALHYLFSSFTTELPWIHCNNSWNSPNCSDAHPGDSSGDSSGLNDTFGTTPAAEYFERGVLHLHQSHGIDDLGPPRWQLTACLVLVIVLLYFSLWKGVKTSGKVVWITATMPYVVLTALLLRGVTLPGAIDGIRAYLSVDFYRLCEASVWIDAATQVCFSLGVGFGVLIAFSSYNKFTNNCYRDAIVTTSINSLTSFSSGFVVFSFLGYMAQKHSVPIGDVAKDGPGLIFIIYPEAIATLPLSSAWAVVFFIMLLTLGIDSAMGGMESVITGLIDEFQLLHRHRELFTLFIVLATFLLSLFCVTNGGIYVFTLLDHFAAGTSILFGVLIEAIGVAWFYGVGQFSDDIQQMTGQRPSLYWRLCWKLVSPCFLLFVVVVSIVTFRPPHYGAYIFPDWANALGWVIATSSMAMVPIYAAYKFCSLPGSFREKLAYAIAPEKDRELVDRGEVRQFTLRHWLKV
UniProt P31645, whole entry, looked up: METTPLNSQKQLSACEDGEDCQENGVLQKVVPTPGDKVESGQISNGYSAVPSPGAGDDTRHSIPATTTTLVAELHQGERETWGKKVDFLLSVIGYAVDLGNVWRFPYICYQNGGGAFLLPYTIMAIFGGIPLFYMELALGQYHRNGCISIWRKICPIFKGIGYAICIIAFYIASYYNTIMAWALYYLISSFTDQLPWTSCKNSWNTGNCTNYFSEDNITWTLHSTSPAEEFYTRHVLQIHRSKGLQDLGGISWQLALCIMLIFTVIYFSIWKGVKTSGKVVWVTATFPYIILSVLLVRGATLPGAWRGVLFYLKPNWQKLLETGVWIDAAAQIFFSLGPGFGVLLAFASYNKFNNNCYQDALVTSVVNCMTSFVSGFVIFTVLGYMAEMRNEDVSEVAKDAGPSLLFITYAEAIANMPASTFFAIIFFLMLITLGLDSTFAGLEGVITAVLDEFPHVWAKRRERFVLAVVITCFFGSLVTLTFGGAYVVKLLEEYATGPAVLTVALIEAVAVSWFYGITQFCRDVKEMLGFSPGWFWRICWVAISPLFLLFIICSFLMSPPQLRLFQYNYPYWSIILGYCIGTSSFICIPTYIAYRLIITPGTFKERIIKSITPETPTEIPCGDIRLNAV

A word on the Ki: it is the dissociation constant of the complex between target and ligand, obtained from inhibition or displacement.

Assay [1] deals with human NE transporter (NET) (Homo sapiens (Human), UniProt P23975). In words: Primary binding assay, NET ([3H] Nisoxetine).
Assay [2] addresses human DA transporter (DAT) (Homo sapiens (Human), UniProt Q01959). Nature of the assay: Primary binding assay, DAT ([3H] WIN 35,428).
Assay [3] concerns the target human 5HT transporter (5HTT, SERT) (Homo sapiens (Human), UniProt P31645). In words: Primary binding assay, 5HTT/SERT ([3H] Citolapram). The note with it: read-out: SERT Ki; Table 1; binding affinity, human transporter in HEK293E cells.
The mark [4] stands for this setting: read-out: NET Ki, Table 1, binding affinity, human transporter in HEK293E cells.
[5] abbreviates: read-out: DAT Ki, Table 1, binding affinity, human transporter in HEK293E cells.
Where [6] appears, read: read-out: Ki, nM NET, Table 2, inhibition of radioligand binding at the human transporter.

Where two headings read alike, the source gives them in different places.

As to `Cc1ccc(C2CN(C)Cc3ccccc32)o1` (stereo not drawn), the Ki in assay [1] (setting [4]) was 1640 nM; in assay [2] (setting [5]), 5640 nM; in assay [3], 7.53 µM.
Turning to `CN1Cc2ccccc2C(c2ccc3sncc3c2)C1` (stereo not drawn), the Ki in assay [1] (setting [6]) was determined as 38.6 nM.
With `CN1Cc2ccccc2C(c2cccs2)C1` (stereo not drawn), the Ki in assay [1] (setting [4]) was 3060 nM.
With `CCN1Cc2ccccc2C(c2ccc3cn[nH]c3c2)C1` (stereo not drawn), the Ki in assay [1] (setting [6]) came to 12.7 nM.
For `COc1ccc(C2CN(C)Cc3ccccc32)cn1` (stereo not drawn), the Ki in assay [2] (setting [5]) came out at 2790 nM; in assay [3], 0.47 µM.
With `Cc1cccc2c1C(c1ccc3ccccc3c1)CN(C)C2` (stereo not drawn), the Ki in assay [2] (read-out: Ki, nM DAT, Table 2, inhibition of radioligand binding at the human transporter) stood at 39.5 nM.
